For 1 molecule, IC50 results are on record in patent US9809583B2 (priority 2014, dated 2017).

The chains behind the UniProt entries cited, without tags or fusion partners. Where a name states a change or a piece, a line headed by the entry shows the natural chain unless it says otherwise.
UniProt P10275: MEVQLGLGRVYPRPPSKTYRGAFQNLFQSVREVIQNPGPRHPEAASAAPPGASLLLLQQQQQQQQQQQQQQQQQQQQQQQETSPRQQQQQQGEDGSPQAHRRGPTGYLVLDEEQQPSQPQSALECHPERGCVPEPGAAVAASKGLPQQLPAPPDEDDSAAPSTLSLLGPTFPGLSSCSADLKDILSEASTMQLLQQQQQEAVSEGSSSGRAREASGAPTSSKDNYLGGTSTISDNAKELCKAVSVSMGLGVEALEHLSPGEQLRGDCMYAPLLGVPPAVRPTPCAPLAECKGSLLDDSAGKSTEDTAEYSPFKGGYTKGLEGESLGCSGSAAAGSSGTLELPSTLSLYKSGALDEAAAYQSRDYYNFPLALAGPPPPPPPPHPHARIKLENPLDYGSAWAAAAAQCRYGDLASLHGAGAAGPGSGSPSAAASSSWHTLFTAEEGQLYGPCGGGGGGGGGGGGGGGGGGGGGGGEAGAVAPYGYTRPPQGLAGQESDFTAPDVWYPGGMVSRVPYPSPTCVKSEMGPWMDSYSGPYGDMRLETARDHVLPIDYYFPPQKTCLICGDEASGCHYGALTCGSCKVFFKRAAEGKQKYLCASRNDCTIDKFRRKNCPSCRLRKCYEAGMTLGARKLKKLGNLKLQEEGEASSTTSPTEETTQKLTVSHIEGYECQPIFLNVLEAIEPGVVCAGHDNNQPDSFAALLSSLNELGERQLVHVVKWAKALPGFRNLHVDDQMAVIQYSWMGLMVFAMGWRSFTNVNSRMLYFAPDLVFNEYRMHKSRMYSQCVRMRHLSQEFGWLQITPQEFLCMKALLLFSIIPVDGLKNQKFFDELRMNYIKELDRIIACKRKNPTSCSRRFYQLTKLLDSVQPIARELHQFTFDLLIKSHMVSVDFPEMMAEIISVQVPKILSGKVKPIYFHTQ

The test concerns the target androgen receptor (hAR) (Homo sapiens (Human), UniProt P10275). It counts as binding. To be noted: 1 nM [3H]MIB, hAR-transfected COS-7 cells, 2 hours; read-out: IC50 [nM] (mean ± SE). Here is the method: In order to examine binding ability of the agonists of the present invention to androgen receptors, the following in-vitro experiment was performed. African green monkey kidney fibroblast-like cell line, COS-7 (ATCC, #CRL-1651) was seeded in a 48-well plate at a density of 2.5×10^4 cells/well, and cultured for 24 hours. Then, a plasmid hAR-mixed medium was added thereto. The transfected cell line was treated with 1 nM of [3H]MIB and 0.1˜10,000 nM of SARM derivatives, and then allowed to react for 2 hours. Thereafter, the cells were lysed and the amount of [3H]MIB bound to the intracellular androgen receptors was measured using a radiation dosimeter. The results were shown in Table 4 as 50% inhibition concentration (IC50) relative to that of an untreated control group.

With `N#Cc1ccc(N2C[C@@H](CO)O[C@@H]2C(F)(F)F)cc1C(F)(F)F` [Example 1, 4-((2R,5S)-5-(hydroxymethyl)-2-(trifluoromethyl)oxazolidin-3-yl)-2-(trifluoromethyl)benzonitrile], the IC50 amounted to 64.4 nM.

The term IC50 denotes the concentration that inhibits the measured activity by half.
